Results published in patent US11976137B2, “Compounds for use as apelin receptor antagonists” (Cambridge Enterprise Limited, priority 2018, dated 2024).

Experiments:
human apelin receptor [1] = biological target: T1, human apelin receptor (Homo sapiens, UniProt P35414); conditions: antagonism of [Pyr1]apelin-13 inhibition of forskolin-stimulated cAMP
T1 sequence (P35414 1-380): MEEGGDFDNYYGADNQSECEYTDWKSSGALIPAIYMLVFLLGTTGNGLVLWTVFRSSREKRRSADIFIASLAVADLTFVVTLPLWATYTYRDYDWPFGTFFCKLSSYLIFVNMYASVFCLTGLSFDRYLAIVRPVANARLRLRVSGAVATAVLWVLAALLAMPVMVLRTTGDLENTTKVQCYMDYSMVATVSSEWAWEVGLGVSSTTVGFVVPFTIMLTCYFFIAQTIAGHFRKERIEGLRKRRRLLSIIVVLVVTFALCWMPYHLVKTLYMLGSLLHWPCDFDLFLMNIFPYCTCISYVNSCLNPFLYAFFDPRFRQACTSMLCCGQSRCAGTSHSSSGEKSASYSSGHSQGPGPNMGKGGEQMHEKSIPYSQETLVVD
Procedure: Antagonist activity at the apelin receptor was measured in two assays.
(§1) cAMP (cAMP Hunter™ eXpress AGTRL1 CHO-K1 GPCR Assay, DiscoverX Corporation, Ltd. Birmingham, UK) and β-arrestin (PathHunter® eXpress AGTRL1 CHO-K1 β-Arrestin GPCR Assay, DiscoverX Corporation, Ltd. Birmingham, UK) assays were performed according to the manufacturer's instructions. The cAMP assay measures the canonical signalling pathway through the G-protein. The β-arrestin assay measures the alternative signalling pathway and receptor internalisation.
Cells were then incubated with a mixture of Lysis Buffer, cAMP Buffer D and Detection Reagents for 1 hour at room temperature, followed by a 3 hour incubation with cAMP Reagent A at room temperature. Chemiluminescence was read using the LumiLITE™ Microplate Reader (DiscoverX). Concentration-response data for agonists, measured in relative light units (RLU), were analysed using a 4 parameter logistic equation in GraphPad Prism 6 (La Jolla, CA, USA) to determine values of potency expressed as the pD2 value (negative logo of the EC50 (where EC50 is the concentration producing half maximal response)), and maximum response (EMAX). Mean data from replicate experiments were normalised as percentage inhibition of forskolin-stimulated cAMP production.

human apelin receptor [2] = biological target: T1, human apelin receptor
Procedure: as §1
For recruitment of β-arrestin, CHO-K1 cells artificially expressing the human apelin receptor were seeded in Cell Plating medium into 96-well plates and incubated for 48 hours at 37° C. in 5% CO2. Concentration response curves were constructed to test peptides (1 pmol/L-30 μmol/L) which were diluted in Cell Plating medium and added to the cells for 90 minutes at 37° C. If no response was obtained then test peptides were investigated as antagonists. […] Detection reagents were then added for a 2-hour incubation at room temperature. […] If no agonist response was obtained, test compounds were investigated for antagonist activity by repeating [Pyr]apelin-13 concentration response curves in the absence and presence of a single concentration (1-30 μmol/L of test peptide). Data were analysed as described for the cAMP assay using the Gaddum/Schild EC50 function in GraphPad Prism 6 to determine values of pA2.

DRx cAMP pA2 (human apelin receptor [1]): 6.29 | DRx β-Arrestin pA2 (human apelin receptor [2]): 7.28
Compound: CCCC[C@H](NC(=O)[C@H](CCCNC(=N)N)NC(=O)C(C)(C)NC(=O)[C@H](CCCNC(=N)N)NC(=O)[C@H](CC)NC(=O)[C@H](Cc1c[nH]cn1)NC(=O)[C@H](CCCCN)NC(=O)[C@H](CC)NC(=O)[C@H](CCCC)NC(=O)[C@H](CCCNC(=N)N)NC(=O)[C@@H]1CCCN1C(=O)[C@H](CCCNC(=N)N)NC(=O)[C@@H]1CCC(=O)N1)C(=O)N[C@@H](Cc1cc(F)c(F)c(F)c1)C(=O)O [MM301, Pyr-RPR-Nle-Abu-KH-Abu-R-Aib-R-Nle-(3,4,5-trifluorophenylalanine)]
